# Columns and labels:
# Sequences of proteins named here, by UniProt entry; tags and fusion partners are left off.
# UniProt P08911, whole entry: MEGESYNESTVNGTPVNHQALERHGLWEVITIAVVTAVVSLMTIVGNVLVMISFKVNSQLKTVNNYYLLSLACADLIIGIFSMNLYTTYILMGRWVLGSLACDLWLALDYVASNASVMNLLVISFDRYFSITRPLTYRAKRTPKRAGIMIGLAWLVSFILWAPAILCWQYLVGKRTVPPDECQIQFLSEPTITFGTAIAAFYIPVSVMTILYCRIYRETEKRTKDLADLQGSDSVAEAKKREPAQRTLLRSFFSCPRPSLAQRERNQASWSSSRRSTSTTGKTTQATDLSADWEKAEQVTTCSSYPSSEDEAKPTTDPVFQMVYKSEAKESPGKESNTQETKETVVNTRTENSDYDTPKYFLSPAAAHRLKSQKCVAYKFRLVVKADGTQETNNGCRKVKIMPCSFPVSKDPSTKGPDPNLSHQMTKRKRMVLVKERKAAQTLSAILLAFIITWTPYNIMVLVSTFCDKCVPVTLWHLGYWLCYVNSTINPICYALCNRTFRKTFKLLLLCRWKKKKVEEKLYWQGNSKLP
# rat M5 mAChR [1] = molecular target: T1, rat M5 mAChR (Rattus norvegicus, UniProt P08911); experiment: [3H]NMS equilibrium binding in whole CHO-rM5 cells (interaction with ACh)
# rat M5 mAChR [2] = molecular target: T1, rat M5 mAChR; experiment: ACh-stimulated IP accumulation (IP-One) in CHO-rM5 cells; type: cell-based; settings: [3H]NMS-binding and functional studies
compound,measurement,setting,value
"O=C(c1ccc(F)c(F)c1)N1CCN2C(=O)c3ccccc3[C@@]12c1ccc(Cl)cc1 [ML375, (S)-9b-(4-chlorophenyl)-1-(3,4-difluorobenzoyl)-2,3-dihydro-1H-imidazo[2,1-a]isoi ndol-5(9bH)-one]",cooperativity with [3H]NMS,rat M5 mAChR [1],neutral-to-weak negative cooperativity
same,"cooperativity with ACh binding, Log α",rat M5 mAChR [1]; whole-cell [3H]NMS binding,−1.41 ± 0.15
same,selectivity for rM5 mAChR over other mAChRs,rat M5 mAChR [2],high selectivity
